For four compounds, Ki results are on record in ChEMBL document CHEMBL1144950, “Structure--activity relationships of azasugar-based MMP/ADAM inhibitors” (Bioorg Med Chem Lett, 2003).

The chains behind the UniProt entries cited, without tags or fusion partners. Where a name states a change or a piece, a line headed by the entry shows the natural chain unless it says otherwise.
UniProt P14780: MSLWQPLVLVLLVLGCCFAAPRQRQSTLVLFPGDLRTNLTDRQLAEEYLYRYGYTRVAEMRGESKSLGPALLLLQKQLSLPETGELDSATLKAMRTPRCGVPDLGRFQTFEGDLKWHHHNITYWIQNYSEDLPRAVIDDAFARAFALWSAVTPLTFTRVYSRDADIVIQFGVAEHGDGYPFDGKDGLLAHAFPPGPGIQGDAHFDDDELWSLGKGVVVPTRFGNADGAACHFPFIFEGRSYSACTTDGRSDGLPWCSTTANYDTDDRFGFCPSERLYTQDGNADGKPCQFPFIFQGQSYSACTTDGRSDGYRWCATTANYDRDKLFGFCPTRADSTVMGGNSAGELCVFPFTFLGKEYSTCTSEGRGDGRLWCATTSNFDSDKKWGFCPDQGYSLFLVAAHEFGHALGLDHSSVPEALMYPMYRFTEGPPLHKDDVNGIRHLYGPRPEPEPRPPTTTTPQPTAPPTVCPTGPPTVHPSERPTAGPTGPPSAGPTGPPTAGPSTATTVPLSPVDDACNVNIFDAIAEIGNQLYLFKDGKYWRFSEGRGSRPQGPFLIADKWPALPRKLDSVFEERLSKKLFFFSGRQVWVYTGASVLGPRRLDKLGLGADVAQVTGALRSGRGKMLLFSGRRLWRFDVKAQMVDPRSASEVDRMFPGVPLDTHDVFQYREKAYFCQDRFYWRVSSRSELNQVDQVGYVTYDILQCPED

The pKi is the Ki on a negative log10 scale, so that one unit is a factor of ten.

pKi: −log10 of the molar value.

The target of the experiment is Matrix metalloproteinase-9 (Homo sapiens, UniProt P14780). Description: Inhibition of recombinant human matrix metalloprotease-9.
For `COc1ccc(S(=O)(=O)N2C[C@H](O)[C@H](O)[C@@H](O)[C@@H]2C(=O)NO)cc1`, the pKi was 6.11.
As for `COc1ccc(S(=O)(=O)N2C[C@@H](O)[C@H](O)[C@@H](O)[C@@H]2C(=O)NO)cc1`, the negative logarithm of the Ki (pKi) is 7.09.
Turning to `COc1ccc(S(=O)(=O)N2C[C@H](O)[C@@H](O)[C@@H](O)[C@@H]2C(=O)NO)cc1`, the pKi is 6.80.
Take `COc1ccc(S(=O)(=O)N2C[C@H](O)[C@@H](O)[C@H](O)[C@@H]2C(=O)NO)cc1`: the pKi is 8.32.
